{"source": "patent US12076411B2", "about": "“Anti-HER2 antibody-maytansine conjugates and methods of use thereof” (priority 2014, dated 2024)", "key": {"NCI-N87 xenografts": {"test_system": "NCI-N87 xenografts", "experiment": "NCI-N87 xenograft in SCID mice, single dose (Example 1)", "settings": "for Log10 cell kill: single 5 mg/kg ADC dose"}, "NCI-N87 xenograft": {"test_system": "NCI-N87 xenograft", "experiment": "NCI-N87 xenograft in SCID mice, single dose (Example 2)", "assay_type": "in vivo, C.B-17 SCID mice"}, "NCI-N87 tumors": {"test_system": "NCI-N87 tumors", "experiment": "Multidose efficacy study, NCI-N87 tumors in SCID mice (Example 2)", "assay_type": "in vivo", "settings": "5 mg/kg once a week for four weeks", "procedure": "Two linkers were used for a multidose efficacy study. […] The multidose study used NCI-N87 tumors in SCID mice. Animals were dosed (5 mg/kg) once a week for four weeks."}}}
{"substance": "αHER2 CH1 ADC: Trastuzumab with aldehyde tag in the CH1 domain (Tag C) conjugated to HIPS-Glu-PEG2-maytansine", "values": [{"measurement": "Log10 cell kill", "setting": "NCI-N87 xenografts", "result": 0.83}]}
{"substance": "Linker 101: C-terminally aldehyde-tagged αHER2 antibody conjugated to maytansine drug-linker 101 (HIPS, Glu, PEG2)", "values": [{"measurement": "Log10 cell kill", "setting": "NCI-N87 xenograft; single 5 mg/kg ADC dose", "result": 1.24}, {"measurement": "survival (in words)", "setting": "NCI-N87 xenograft; single 5 mg/kg dose, euthanized at 800 mm^3 or day 112", "result": "significant survival advantage"}, {"measurement": "activity against the smaller tumors (in words)", "setting": "NCI-N87 tumors; dosing begun at 180 mm^3", "result": "highly active"}, {"measurement": "treated/control tumor volumes at day 42", "setting": "NCI-N87 tumors; stated after the larger (400 mm^3) tumor arm", "result": 0.39}]}
{"substance": "αHER2 CT ADC: Trastuzumab with aldehyde tag at the heavy chain C-terminus (CT, Tag G) conjugated to HIPS-Glu-PEG2-maytansine", "values": [{"measurement": "Log10 cell kill", "setting": "NCI-N87 xenografts", "result": 1.24}, {"measurement": "survival (in words)", "setting": "NCI-N87 xenografts; single 5 mg/kg dose, euthanized when tumors reached 800 mm^3", "result": "significant survival advantage"}]}
{"substance": "αHER2-DM1 ADC: ADC made by conjugating trastuzumab through conventional lysine chemistry to SMCC-DM, comparator (DAR 3.4) [reference compound]", "values": [{"measurement": "Log10 cell kill", "setting": "NCI-N87 xenografts", "result": 1.03}]}
{"substance": "αHER2 LC ADC: Trastuzumab with aldehyde tag in the light chain (LC) conjugated to HIPS-Glu-PEG2-maytansine", "values": [{"measurement": "Log10 cell kill", "setting": "NCI-N87 xenografts", "result": 1.08}]}
{"substance": "Trastuzumab [reference compound]", "values": [{"measurement": "tumor growth (in words)", "setting": "NCI-N87 xenografts; single 5 mg/kg dose", "result": "tumors continued to grow"}]}
